Antibody variant affinities, Ab-14 heavy chain, assay B

From the AlphaSeq antibody data of Li et al. 2023 (doi:10.1038/s41467-023-39022-2), copy in the FLAb collection.

Target: peptide PDVDLGDISGINAS, taken from heptad repeat 2 (HR2) of SARS-CoV-2 spike.

Ab-14 is the parent antibody, in scFv form: VH, then the linker GGGGSGGGGSGGGGS, then VL. The light chain is unchanged in all variants.
VH: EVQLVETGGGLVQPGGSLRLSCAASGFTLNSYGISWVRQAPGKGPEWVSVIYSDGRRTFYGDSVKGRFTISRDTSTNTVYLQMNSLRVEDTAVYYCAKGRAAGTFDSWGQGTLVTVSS
VL: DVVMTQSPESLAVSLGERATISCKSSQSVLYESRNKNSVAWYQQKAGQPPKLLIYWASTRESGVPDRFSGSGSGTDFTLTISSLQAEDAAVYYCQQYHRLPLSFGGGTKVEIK

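The parent was found by panning a naive human phage display library on the peptide. These sequences belong to a second round, designed from the earlier measurements on random variants of the parent. Group labels follow the data file (Ctrl: baseline library sampled from a position-specific scoring matrix, with some repeated check sequences; Rand: our label for a block that the file lists under HC and that is probably the random mutants of the ten best first-round binders; En: ensemble of fine-tuned language models; GP: Gaussian process model; GPLM: also part of the Gaussian process libraries; HC: hill climbing; Gen: genetic algorithm; Gibbs: Gibbs sampling; a sequence that several methods proposed may carry one label only). Affinity was read by AlphaSeq, a pooled yeast mating assay with surface-displayed partners. Pairs that bind mate more often; barcode pairs of the diploids are counted by sequencing. The ratio of observed to expected reads was calibrated, replicate by replicate, on BCL2-family standards whose Kd was known from biolayer interferometry. Each pool was mated in six replicate cultures.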

Each variant is given by its three heavy chain CDRs, as the data file delimits them; those of the parent are GFTLNSYGIS, VIYSDGRRTFYGDSVK, GRAAGTFDS.
Each Kd is an estimate from the mating assay, the geometric mean of the replicates in which the pair was seen; lower is stronger.
"not detected" means that the variant was in the library but no mating with the target was seen in any replicate; the authors take this as a sign of poor binding, and no number exists.

| # | CDR-H1 | CDR-H2 | CDR-H3 | group | Kd | replicates with signal |
|---|---|---|---|---|---|---|
| 1 | GFDLDEYGIS | VIYADGKRTAYTDSVK | GNVAGTFDT | En_Gen | 510 pM | 6/6 |
| 2 | GADLNEYGIS | VIYADGDRKAYQDDVK | GTVGGDFDE | En_Gibbs | not detected | 0/6 |
| 3 | GFTLNQYGIS | VIYSDGRRTFYEDSVK | GRAAGFFDS | Rand | not detected | 0/6 |
| 4 | GFDLDEYGIS | VIYADGRRTAYSDSVK | GNQAGTFDI | En_Gen | 58 nM | 5/6 |
| 5 | GFSLNSYGIS | VIYADGRRTFYGDQVK | GQAAGTFDS | GPLM_Gen | 340 pM | 6/6 |
| 6 | GFTLNSYGIS | VIYSDGRRTFYADSVK | GQTAGTFDK | GPLM_Gen | 7.3 nM | 6/6 |
| 7 | GFNLNSYGIS | VIYSDGRRTFYGDDVK | GREAGTFDS | GP_Gen | 3.4 nM | 5/6 |
| 8 | GFTLRDYGIS | VIYSDGRRTFYADSVK | GFAAGTFDS | Ctrl | not detected | 0/6 |
| 9 | GFTLNSYGIS | VIYSDGRRTFYSDRVK | GEAAGTFDS | GPLM_Gen | 21 nM | 6/6 |
| 10 | GFKLNSYGIS | VIYSDGRRTFYIDSVK | GRIAGTFDS | GP_HC | not detected | 0/6 |
| 11 | GLTLEDYGIS | VIYSDGRRTFYTDSVK | GRATGTFDS | Ctrl | not detected | 0/6 |
| 12 | GFDLNEYGIS | VIYADGMRTAYADSVK | GNQAGTFDI | En_Gen | 110 pM | 6/6 |
| 13 | GFDLNEYGIS | VIYADGRRTFYQDSVK | GETAGTFDQ | En_HC | 420 pM | 5/6 |
| 14 | GFILNSYGIS | VIYSDGRRTFYDDSVK | GQEAGTFDS | GP_HC | 93 nM | 6/6 |
| 15 | GFYLNDYGIS | VIYSDGRRTYYGDSVK | GRAAGTFDS | GP_HC | 1.4 nM | 2/6 |
| 16 | GFDLNEYGIS | VIYADGQRTAYADSVK | GNVAGTFDQ | En_Gen | 270 pM | 6/6 |
| 17 | GFDLGEYGVS | VIYADGHRAAYTDNVK | GAESGSVQT | En_Gibbs | not detected | 0/6 |
| 18 | GFTLNSYGIS | VIYADGRRTFYGDSVK | GDNASTFDS | Ctrl | 280 nM | 1/6 |
| 19 | GFQLNSYGIS | VIYSDGRRTFYGDSVK | GRFAKTFDS | Ctrl | not detected | 0/6 |
| 20 | GFSLNSYGIS | VIYSDGRRTFYGDSVK | GEEAGTFDS | GPLM_Gen | 2.1 nM | 6/6 |
| 21 | GFTLNDYGIW | VHYSDGRRTQYIDSVK | GRAAGTFDS | Rand | 410 nM | 1/6 |
| 22 | GFDLNEYGIS | VIYADGRRTFYSDSVK | GEVAGTFDQ | En_HC | 940 pM | 6/6 |
| 23 | GFDLNEYGIS | VIYADGQRTAYADSVK | GQVAGTFDS | En_HC | 480 pM | 6/6 |
| 24 | GFTINEYGIS | VIYSDGRRTFYGDSVK | GRAAGTKDS | Ctrl | not detected | 0/6 |
| 25 | GFTLDSYGIS | VIYSDGMRTFYADSVK | GRAAGTFDS | GP_Gibbs | 5.3 nM | 6/6 |
| 26 | GFTLNSYGIS | VIYSDGRRTFYNDSVK | GRVAGTFDS | Ctrl | 43 nM | 3/6 |
| 27 | GFELNSYGIS | VIYSDGRRTFYGDSVK | GQAAGTFDL | GPLM_Gen | 15 nM | 6/6 |
| 28 | GFDLNSYGIS | VIYSDGRRTFYADDVK | GQAAGTFDS | GP_Gen | 7.8 nM | 6/6 |
| 29 | GFDLNEYGIS | VIYADGSRTAYADDVK | GNTAGTFDV | En_Gen | 210 pM | 6/6 |
| 30 | GFDLNEYGIS | VIYADGVRTAYADKVK | GNTAGTFDV | En_Gen | 100 pM | 6/6 |
| 31 | GFDLDEYGIS | VIYADGRRTFYQDSVK | GQNAGTFDQ | En_HC | 150 pM | 6/6 |
| 32 | GFTLNSYGIS | VIYSDGRRTFYGDDVK | GQTAGTFDL | GP_Gen | 15 nM | 6/6 |
| 33 | GFQLNSYGIS | VIYSDGRRTFYQDSVK | GQAAGTFDS | GP_Gen | not detected | 0/6 |
| 34 | GFDLNEYGIS | VIYADGKRTAYADSVK | GEVAGTFDL | En_Gen | 630 pM | 6/6 |
| 35 | GFDLNSYGIS | VIYSDGRRTFYGDSVK | GKSAGTFDS | GPLM_Gen | 3.1 nM | 6/6 |
| 36 | GFQLNSYGIS | VIYSDGRRTFYGDSVK | GRAAGWFDS | Rand | not detected | 0/6 |
| 37 | GFDLNSYGIS | VIYSDGRRTFYIDSVK | GREAGTFDT | GP_Gen | 1.1 nM | 6/6 |
| 38 | GPGLQEYGIS | VIYADGIRSAYSDDVK | GQNAGHFLV | En_Gibbs | 50 nM | 1/6 |
| 39 | GFDLNSYGIS | VIYSDGRRTFYGDSVK | GRAAGSFNV | GP_HC | 24 nM | 1/6 |
| 40 | GFDLNEYGIS | VIYADGRRTFYADSVK | GNTAGTFLV | En_HC | 260 pM | 6/6 |
| 41 | GFDLNEYGIS | VIYADGVRTAYSDSVK | GNNAGTFDI | En_Gen | 570 pM | 6/6 |
| 42 | GFSLNDYGIS | VIYSDGRRTFYGDDVK | GRTAGTFDS | GPLM_Gen | 440 pM | 6/6 |
| 43 | GFELNSYGIS | VIYSDGQRTFYGDNVK | GRTAGTFDS | GP_Gibbs | 5.4 nM | 6/6 |
| 44 | GFDLEDYGIS | VIYADGRRTFYADSVK | GEVAGTFDV | En_HC | 1.3 nM | 6/6 |
| 45 | GFDLNEYGIS | VIYADGRRTFYKDSVK | GEAGGTFDV | En_HC | 58 nM | 1/6 |
| 46 | GFTLNSYGIS | VIYSDGRRTFYGDSVK | GSAKGTFDS | Ctrl | not detected | 0/6 |

In the paper, a design with two or fewer of six values counts as a poor binder.
Values of this round are not directly comparable with the first-round values of the same sequences.
Background: pairings of all heavy chain designs with three empty control strains gave a value in 1% of cases (median 120 nM, 5th percentile 7.0 nM). Values in that range, when seen in few replicates, are hard to tell from nonspecific mating.